These results are taken from US20090306126A1, “Indole Derivatives” (ASTRAZENECA AB, priority 2006, published 2009).

Protein sequences, listed by entry. Tags and fused reporters are not part of them.
UniProt P42336, whole entry: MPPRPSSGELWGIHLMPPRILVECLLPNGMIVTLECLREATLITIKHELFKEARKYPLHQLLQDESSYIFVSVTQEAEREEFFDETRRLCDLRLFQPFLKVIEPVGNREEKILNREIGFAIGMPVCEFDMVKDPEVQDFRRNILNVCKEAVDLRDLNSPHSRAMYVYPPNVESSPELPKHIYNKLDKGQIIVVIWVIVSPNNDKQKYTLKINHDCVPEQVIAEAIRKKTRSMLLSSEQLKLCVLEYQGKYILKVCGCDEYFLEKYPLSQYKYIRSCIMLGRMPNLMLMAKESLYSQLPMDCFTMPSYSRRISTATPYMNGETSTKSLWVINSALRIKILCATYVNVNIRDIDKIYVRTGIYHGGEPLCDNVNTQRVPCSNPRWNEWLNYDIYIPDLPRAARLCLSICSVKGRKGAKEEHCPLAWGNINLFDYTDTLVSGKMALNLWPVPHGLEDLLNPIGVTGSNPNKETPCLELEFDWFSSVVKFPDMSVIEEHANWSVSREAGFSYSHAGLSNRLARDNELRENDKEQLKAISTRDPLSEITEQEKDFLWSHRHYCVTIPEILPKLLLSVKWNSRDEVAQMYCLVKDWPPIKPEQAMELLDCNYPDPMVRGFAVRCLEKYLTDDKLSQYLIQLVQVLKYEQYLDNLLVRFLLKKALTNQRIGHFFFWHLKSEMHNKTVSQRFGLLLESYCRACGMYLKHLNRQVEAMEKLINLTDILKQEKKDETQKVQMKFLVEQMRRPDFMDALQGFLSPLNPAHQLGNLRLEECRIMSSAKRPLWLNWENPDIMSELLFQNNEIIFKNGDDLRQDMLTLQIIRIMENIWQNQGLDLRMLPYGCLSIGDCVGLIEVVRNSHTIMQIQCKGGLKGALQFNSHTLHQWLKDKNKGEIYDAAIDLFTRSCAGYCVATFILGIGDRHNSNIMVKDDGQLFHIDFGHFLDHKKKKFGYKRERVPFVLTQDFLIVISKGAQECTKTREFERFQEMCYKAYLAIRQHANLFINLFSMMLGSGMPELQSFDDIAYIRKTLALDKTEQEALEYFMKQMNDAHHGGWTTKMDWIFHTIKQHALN
UniProt P27986, whole entry partner: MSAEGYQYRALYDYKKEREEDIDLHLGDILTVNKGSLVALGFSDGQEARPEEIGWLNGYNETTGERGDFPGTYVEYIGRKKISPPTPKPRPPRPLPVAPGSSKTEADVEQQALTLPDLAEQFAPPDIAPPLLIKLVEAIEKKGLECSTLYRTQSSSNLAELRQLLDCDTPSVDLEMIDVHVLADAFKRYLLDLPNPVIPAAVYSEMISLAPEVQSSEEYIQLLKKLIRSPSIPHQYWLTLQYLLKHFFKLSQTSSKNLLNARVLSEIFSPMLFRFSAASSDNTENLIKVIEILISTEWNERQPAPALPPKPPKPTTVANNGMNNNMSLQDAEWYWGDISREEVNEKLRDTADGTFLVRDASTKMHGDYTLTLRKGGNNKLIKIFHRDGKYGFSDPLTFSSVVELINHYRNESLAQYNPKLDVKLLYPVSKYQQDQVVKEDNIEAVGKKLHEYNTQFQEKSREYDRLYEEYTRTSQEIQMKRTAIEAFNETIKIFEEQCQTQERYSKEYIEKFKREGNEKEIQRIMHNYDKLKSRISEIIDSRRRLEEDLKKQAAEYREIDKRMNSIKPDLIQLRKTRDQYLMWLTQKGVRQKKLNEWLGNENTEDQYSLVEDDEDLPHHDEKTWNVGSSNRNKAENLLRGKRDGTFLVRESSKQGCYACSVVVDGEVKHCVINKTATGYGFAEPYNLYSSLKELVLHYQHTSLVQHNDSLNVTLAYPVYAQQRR

For one test, the target named is p110α Type Ia human PI3K (Homo sapiens, UniProt P42336). Briefly: In vitro PI3K enzyme assay (AlphaScreen), Test (a). In kind it is biochemical. To be noted: read-out: IC50 versus p110α Type Ia human PI3K, recombinant enzyme, ATP 4 μM. (Bead proximity is the source of the signal in Alpha formats.)
The subject of test [1] is phosphorylation of Serine 473 in Akt. Briefly: In vitro phospho-Ser473 Akt assay in MDA-MB-468 cells, Test (c). Format: cell-based, human. Particulars: read-out: IC50, inhibition of phosphorylation of Serine 473 in Akt, 2 hours.

On to `O=S(=O)(CC(F)(F)F)Nc1cc(-c2cnc3[nH]ccc3c2)cnc1Cl`, for which the half-inhibitory concentration (IC50) (usually the concentration that inhibits the measured activity by half) on p110α Type Ia human PI3K is 0.5 µM; in test [1], 17 µM.

Regarding `Cc1nc(C)c(S(=O)(=O)Nc2cc(-c3cnc4[nH]ccc4c3)cnc2Cl)s1`, the IC50 came out at 0.1 µM at p110α Type Ia human PI3K and 2 µM in test [1].
